One compound from ChEMBL document CHEMBL1126089, “2-Alkynyl derivatives of adenosine and adenosine-5'-N-ethyluronamide as selective agonists at A2 adenosine receptors” (J Med Chem, 1992) can be followed below.

Sequences of proteins named here, by UniProt entry; tags and fusion partners are left off. A change or cut given only in a name is not applied to a line headed by its entry.
UniProt P29276: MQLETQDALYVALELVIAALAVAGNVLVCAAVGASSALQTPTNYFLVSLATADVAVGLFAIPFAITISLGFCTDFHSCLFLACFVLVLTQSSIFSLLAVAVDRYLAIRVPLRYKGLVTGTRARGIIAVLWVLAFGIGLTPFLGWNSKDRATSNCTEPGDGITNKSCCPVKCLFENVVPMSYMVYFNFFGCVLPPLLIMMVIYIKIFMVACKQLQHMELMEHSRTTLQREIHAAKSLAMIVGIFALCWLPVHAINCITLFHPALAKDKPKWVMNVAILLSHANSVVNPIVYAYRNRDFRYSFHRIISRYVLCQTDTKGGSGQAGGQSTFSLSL
UniProt P30543: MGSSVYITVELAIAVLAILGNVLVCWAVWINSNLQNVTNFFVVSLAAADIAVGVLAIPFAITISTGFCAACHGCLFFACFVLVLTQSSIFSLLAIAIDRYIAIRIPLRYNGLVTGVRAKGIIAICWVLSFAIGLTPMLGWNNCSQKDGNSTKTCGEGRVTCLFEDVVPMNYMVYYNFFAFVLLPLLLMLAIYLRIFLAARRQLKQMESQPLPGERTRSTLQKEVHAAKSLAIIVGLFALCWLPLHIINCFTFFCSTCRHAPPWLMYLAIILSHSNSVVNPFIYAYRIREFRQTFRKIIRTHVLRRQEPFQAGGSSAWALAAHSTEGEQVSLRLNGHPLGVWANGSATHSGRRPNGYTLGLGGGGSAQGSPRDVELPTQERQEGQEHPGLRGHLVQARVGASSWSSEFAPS

This assay concerns the target Adenosine A2 receptor (Rattus norvegicus, UniProt P29276+P30543).

Usually Ki stands for a dissociation constant, usually derived from enzyme kinetics or from competition with a known ligand. A lower Ki goes with higher affinity. The compound `CCCCC#Cc1nc(N)c2ncn([C@@H]3O[C@H](CO)[C@@H](O)[C@H]3O)c2n1` came in with an inhibition constant Ki of 3.6 nM.
